# Assay results: ChEMBL document CHEMBL5126505, “Adenosine receptor antagonists: Recent advances and therapeutic perspective” (Eur J Med Chem, 2022)
# What was measured:
# Adenosine receptor A2a [1] = target: T1, Adenosine receptor A2a (Homo sapiens, UniProt P29274); test: Binding affinity to human adenosine A2A receptor assessed as dissociation constants of high-affinity (KH) measured by radioligand-based affinity assay; conditions: filed as inverse agonist
# Adenosine receptor A2a [2] = target: T1, Adenosine receptor A2a; test: Inverse agonist activity at human A2A receptor assessed as inhibition of cAMP accumulation relative to control; assay type: functional; set-up: scale not given: the % may be the effect or the level left; conditions: filed as inverse agonist
Compound,K (Adenosine receptor A2a [1]) [nM],Activity (Adenosine receptor A2a [2]) [%]
COc1cccc(CNc2nc(N)c3nc(-c4ccco4)sc3n2)c1,23,41
COc1ccccc1CNc1nc(N)c2nc(-c3ccco3)sc2n1,7.16,63
